# Data: PubChem BioAssay AID1645856 (Buhrlage Lab, Dana-Farber Cancer Institute and Novartis …, 2021)
# Amino acid sequences for entries named in this document (tags omitted).
# UniProt Q14694, whole entry: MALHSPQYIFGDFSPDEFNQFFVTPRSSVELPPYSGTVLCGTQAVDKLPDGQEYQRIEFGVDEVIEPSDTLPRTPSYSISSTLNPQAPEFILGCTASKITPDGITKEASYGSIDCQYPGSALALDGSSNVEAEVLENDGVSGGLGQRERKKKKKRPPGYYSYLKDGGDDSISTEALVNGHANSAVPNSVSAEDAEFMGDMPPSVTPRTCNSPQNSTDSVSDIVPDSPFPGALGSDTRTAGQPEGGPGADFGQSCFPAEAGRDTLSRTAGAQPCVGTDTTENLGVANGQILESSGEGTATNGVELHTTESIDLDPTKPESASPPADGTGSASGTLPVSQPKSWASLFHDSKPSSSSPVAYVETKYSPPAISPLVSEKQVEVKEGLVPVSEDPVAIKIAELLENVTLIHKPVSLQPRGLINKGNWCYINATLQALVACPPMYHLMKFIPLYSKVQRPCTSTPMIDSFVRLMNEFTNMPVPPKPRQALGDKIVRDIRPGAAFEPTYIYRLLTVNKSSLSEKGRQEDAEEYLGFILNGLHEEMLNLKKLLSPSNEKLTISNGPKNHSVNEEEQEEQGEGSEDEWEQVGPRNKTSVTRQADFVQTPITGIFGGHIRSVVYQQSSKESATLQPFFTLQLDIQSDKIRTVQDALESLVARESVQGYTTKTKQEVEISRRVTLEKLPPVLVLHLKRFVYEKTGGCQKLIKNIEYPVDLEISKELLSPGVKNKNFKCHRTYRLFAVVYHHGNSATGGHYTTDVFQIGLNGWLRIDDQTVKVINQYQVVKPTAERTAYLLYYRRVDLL
# This is a selection; strong and weak results do not stand in their true shares. Activity calls are given as the source filed them. Cut-off read from the data, not from the text of the source: active = inhibition above about 30%; inactive = the rest.
# Biological target: Ubiquitin carboxyl-terminal hydrolase 10 (Homo sapiens) (UniProt Q14694)
# Experiment: inhibitors of human USP10 deubiquitinase (AID 1645856)
# Details: purified USP10, Ub-rhodamine fluorescence, 60 min; at 20 µM; active compounds read high
row,Structure (SMILES),inhibition
1,CN(C)c1ccc(C(=O)NCC2(N3CCCCC3)CCCCC2)cc1,inactive: 1.79%
2,N#Cc1ccc(C(=O)NCC2(N3CCCCC3)CCCCC2)cc1,inactive: -2.1%
3,Cc1cc(C(=O)NCC2(N3CCOCC3)CCCCC2)c2ccccc2n1,inactive: -3.8%
4,O=C(NCC1(N2CCCCC2)CCCCC1)c1ccc2ncsc2c1,inactive: -4.06%
5,Cc1ccccc1C(=O)NCC1(N2CCOCC2)CCCCC1,inactive: 0.00246%
6,O=C(NCC1(N2CCOCC2)CCCCC1)c1ccccc1Cl,inactive: 1.73%
7,O=C(NCC1(N2CCCCC2)CCCCC1)c1ccc(F)cc1,inactive: -6.16%
8,CC1CN(CCc2ccccc2)CCC1=O (stereo not drawn),inactive: -0.111%
